Most of the hits are listed elsewhere, so they are rarer here than in the full data. Cut-off read from the data, not from the text of the source: all actives reach 1.3 or more but so do some inactives.
What follows are molecules tested on Lgr5 (MarsCy1-Lgr5-EGFP, U2OS) (assay: cell-surface Lgr5 expression (SCi1 fluorescence, background-subtracted) relative to WT DMSO (fold of DMSO control); higher = more Lgr5 at the plasma membrane, active = hit call of the paper). Conditions: U2OS MarsCy1-Lgr5-EGFP stable; treatment time: overnight; 16 µM; library: Johns Hopkins Clinical Compound Library.

| Compound | cell-surface Lgr5 expression |
| --- | --- |
| c1ccc2cccc-2cc1 [Azulene (Sodium gualenate)] | inactive: 1.16 |

Reference: the supplement of paper PMC4683952
